## Binding of CDR-mutated scFvs to a peptide of the spike HR2 region

The target is the same throughout: PDVDLGDISGINAS, from the HR2 region of SARS-CoV-2 spike.

The variants keep the heavy chain, the linker and the frameworks of Ab-14 (scFv order VH, a (GGGGS)3 linker, VL).
VH: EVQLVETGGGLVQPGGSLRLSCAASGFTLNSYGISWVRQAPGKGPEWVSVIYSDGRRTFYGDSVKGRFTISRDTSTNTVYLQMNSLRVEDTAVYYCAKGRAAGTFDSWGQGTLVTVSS
VL: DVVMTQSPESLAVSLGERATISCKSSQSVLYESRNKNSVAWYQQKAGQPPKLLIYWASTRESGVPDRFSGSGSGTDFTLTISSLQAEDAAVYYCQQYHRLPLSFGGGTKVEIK

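The parent was found by panning a naive human phage display library on the peptide. The variants were designed computationally from a first round of random CDR variants and then made and measured. Group labels follow the data file (Ctrl: baseline library sampled from a position-specific scoring matrix, with some repeated check sequences; Rand: our label for a block that the file lists under HC and that is probably the random mutants of the ten best first-round binders; En: ensemble of fine-tuned language models; GP: Gaussian process model; HC: hill climbing; Gen: genetic algorithm; Gibbs: Gibbs sampling; a sequence that several methods proposed may carry one label only). The scFvs were displayed on barcoded MATa yeast, the peptide on MATalpha yeast. After mating in shaken culture at 30 °C for 16 h, diploids were selected and their barcode pairs sequenced. Each replicate has its own calibration line, from reference interactions of the BCL2 family. Each pool was mated in six replicate cultures.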

The parent's light chain CDRs are KSSQSVLYESRNKNSVA, WASTRES, QQYHRLPLS; each variant's own CDRs replace them letter for letter.
The Kd shown is the geometric mean over detected replicates; a lower Kd is a better binder.
A pair that was not seen in any replicate is written "no signal"; this usually means weak binding, but a binder can also be missed.
Background: pairings of all light chain designs with three empty control strains gave a value in 4% of cases (median 430 nM, 5th percentile 38 nM). Values in that range, when seen in few replicates, are hard to tell from nonspecific mating. For each scFv, signals with the empty controls are counted beside the result.
The authors' rule: three or more of the six replicates give a measured affinity, fewer mean a poor binder.
The range of this assay differs from that of the first round, and the authors advise against merging the two.
A sequence that the file lists under several names has all its replicates pooled.

apparent Kd	replicates with signal	control signals	CDR-L1	CDR-L2	CDR-L3	group
2.2 nM	6/6	2/18	HISQMVMYGSCNKQNVA	QVSTREE	QQYHRLPLS	En_HC
590 pM	6/6	0/18	KSLQSVLYESRNKNSVA	DASTRED	QQYHQLPLS	GP_HC
310 pM	6/6	1/18	KISQSELYESRNKNSVA	NASTRMS	QQYHRLPLS	GP_Gen
560 pM	6/6	0/18	KSHWSVEYESRNKNSVA	GASTRES	QQYHQLILS	Ctrl
3.0 nM	6/6	1/18	KFSQSVLMESRNKNSVA	WASTRES	QQYHRLPLS	Ctrl
no signal	0/6	0/18	EIRWQQYDGSEMEANIA	QEGTRHQ	QQYSRLPLS	En_Gibbs
5.6 nM	6/6	0/18	KLQQSVGYESRNKNSVA	DASTRES	QQYHRLPLS	GP_Gen
450 pM	6/6	3/18	KVSQSFLYESRNKNAVA	NASTRES	QQYHRLPLS	GP_Gen
650 pM	6/6	0/18	KFSQSTLYESRNKNSVA	NASTRES	QQYHRLPLS	GP_Gen
6.0 nM	6/6	1/18	KSSQSFLYESRNKNSVA	GASTRES	QQYLRLTLM	Rand
15 nM	6/6	0/18	MVTQLMIWGMHLKNSIA	EAQTRVN	QQYDRLPLF	En_Gen
5.0 nM	6/6	2/18	TLYGLSNSMSKNKNSVA	EMTTREK	QQYDRLPLV	En_Gen
160 nM	5/6	1/18	SLSELYAGWDAANKSIA	ASILMME	QQYHRLPLA	En_Gibbs
930 pM	6/6	2/18	KSPQSVLYESRNKNSVA	AASTRES	QQYHRLPLS	Ctrl
480 pM	6/6	0/18	KVSQSVLQLSRNSNSVA	EASTREA	QQYHRLPLS	GP_Gibbs
35 nM	5/6	0/18	NITGMVEEIGTTMKNIA	EGEFRCM	QQYSRLPLS	En_Gibbs
6.2 nM	6/6	2/18	KLLQNVRTEGRNRNNVA	HMDMRED	QQYWRLPLS	En_HC
670 nM	4/6	2/18	KVSISWLMSSRNKNQVA	HASTRMS	QQYHRLPLS	GP_Gibbs
1.1 nM	6/6	1/18	KFGCGVLYESRNKNSVA	GASTRES	QQYHRLPLS	GP_HC
1.2 nM	6/6	1/18	KLSQSFLYESRNKNSVA	GASTRES	QNYHRLPLS	GP_HC
650 pM	6/6	1/18	KLSQSTLYGSRNKNSVA	NASTRES	QQYHRLPLS	GP_HC
610 pM	6/6	3/18	KLPQSVLYESRNKNSVA	NASTREV	QQYHRLPLS	GP_Gen
420 pM	6/6	0/18	KLSQSWLYESRNKNNVA	NASQRMS	QQYHRLPLS	GP_Gen
29 nM	5/6	0/18	MFSQLFMYGSRNYNSVA	QANTRES	QQYHRLPLI	En_HC
40 nM	4/6	1/18	KISQSVDYESRNKNSVA	WASTRES	QQYHRLPLS	Ctrl
100 nM	1/6	0/18	KSSQSVRYESRNTNSVA	WASTRES	QQPHRLPLS	Ctrl
no signal	0/6	0/18	IVSQLMIWGMHVKNSIA	EAQTRVN	QQYDRLPLI	En_Gen
2.9 nM	6/6	1/18	KIGATLNTLMHQKNNVA	DLVEREN	QQYFRLPLS	En_Gen
370 pM	6/6	0/18	KLMQSYLYESRNKNSVA	NASQRES	QQYHRLPLS	GP_Gen
1.6 nM	6/6	2/18	KLSQSVGYESRLKNNVA	NASQRLE	QQYHRLPLS	GP_Gibbs
46 nM	6/6	1/18	KVSPSHLYWSRNKNQVA	NASTRET	QQYHRLPLS	GP_Gibbs
280 pM	6/6	0/18	KQSQSVLYEWRNKNNVA	DASTRES	QQYHRLPLS	GP_HC
1.2 nM	6/6	1/18	KVMQSVLYESRNKNSVA	NASQREL	QQYHRLPLS	GP_Gibbs
10 nM	6/6	6/18	KSSQSVLYESRNKNSVA	AASTRES	QQYHTLPLS	Ctrl
1.4 nM	6/6	0/18	KISQSVLYESRNKNSVA	GASTRLS	QQYHRLPLS	GP_Gen
3.4 nM	6/6	0/18	MVNGIMDHLSKNSNNVA	EMTTREE	QQYERLPLS	En_Gen
3.4 nM	6/6	1/18	SVGWAHENGDNKMNNIA	DTTHLAY	QQYSRLPIT	En_Gibbs
130 nM	6/6	4/18	KLYYSSVGEVNGSHSIA	ETDQLTF	QQYSHLPLS	En_Gibbs
1.6 nM	6/6	1/18	KLSQSVEQEERNKNSVA	HASVRLV	QQYHRLPLS	GP_Gibbs
450 pM	6/6	0/18	KLSYSVLYESRNKNSVA	EASTRES	QQYHRLPLS	GP_Gen
1.5 nM	12/12	0/36	KLSQSVLYESRNKNSVA	AASTRES	QQYHRLPLS	Ctrl+GP_Gen
12 nM	6/6	1/18	MMSQVTGQGQRHRNNVA	QTSTREP	QQYDRLPLM	En_Gen
4.8 nM	6/6	0/18	KSSQSVSYESRNKNSVA	KASTRES	QQFHRLPLS	Ctrl
18 nM	5/6	1/18	KSSISGLYESRAKNSVA	EASTRES	QQYHRLPLS	GP_HC
46 nM	6/6	0/18	KISMLKNQTFEQSNNVA	EMVTREK	QQYNRLPLS	En_Gen
12 nM	5/6	0/18	KSSQSVLFESRNKNSVA	DASTMES	QQYHRLPLS	Rand
2.7 nM	6/6	0/18	SVTRETDENGLKMNSVA	DAAEAMT	QQYHRLPLT	En_Gibbs
3.5 nM	6/6	0/18	HISQSVLYESRNKGSVA	KASTRES	QQYHRLPLS	Ctrl
42 nM	5/6	0/18	MLWQQDEGFNGVKDAIA	NAELREG	QQYGRLPLS	En_Gibbs
3.0 nM	6/6	1/18	KVSQQGLYGDRNANSVA	NASTRED	QQYHRLPLY	GP_Gibbs
2.9 nM	6/6	2/18	TISQSVLMTGLNRNSVA	QASERLE	QQYHRLPLS	En_HC
2.7 nM	6/6	1/18	SLGTSTLEESRNKNSVA	EMSLRES	QSYNRLPLS	En_HC
840 pM	6/6	0/18	KLLQSVLYESRNKNSVA	EASTRED	QQYHRLPLS	GP_HC

9 of these entries, quoted again:

CDR-L1,CDR-L2,CDR-L3,group,apparent Kd,replicates with signal,control signals
KISMLKNQTFEQSNNVA,EMVTREK,QQYNRLPLS,En_Gen,46 nM,6/6,0/18
SLGTSTLEESRNKNSVA,EMSLRES,QSYNRLPLS,En_HC,2.7 nM,6/6,1/18
NITGMVEEIGTTMKNIA,EGEFRCM,QQYSRLPLS,En_Gibbs,35 nM,5/6,0/18
KLMQSYLYESRNKNSVA,NASQRES,QQYHRLPLS,GP_Gen,370 pM,6/6,0/18
KVSQSVLQLSRNSNSVA,EASTREA,QQYHRLPLS,GP_Gibbs,480 pM,6/6,0/18
KLQQSVGYESRNKNSVA,DASTRES,QQYHRLPLS,GP_Gen,5.6 nM,6/6,0/18
KSSQSVLYESRNKNSVA,AASTRES,QQYHTLPLS,Ctrl,10 nM,6/6,6/18
KVMQSVLYESRNKNSVA,NASQREL,QQYHRLPLS,GP_Gibbs,1.2 nM,6/6,1/18
MFSQLFMYGSRNYNSVA,QANTRES,QQYHRLPLI,En_HC,29 nM,5/6,0/18

Source: Li et al. 2023 (doi:10.1038/s41467-023-39022-2), MIT Lincoln Laboratory and A-Alpha Bio; data file from the FLAb repository.